Experimental data taken from ChEMBL document CHEMBL1140025, “Antimicrobial activity of rationally designed amino terminal modified peptides” (Bioorg Med Chem Lett, 2007).

System: Escherichia coli

GENTAMICIN
MIC: 0.5 µg/mL
